# Experiments:
# [1] = target: T1, ubiquitin activating enzyme (UAE) (Homo sapiens, UniProt P22314); assay: E1-E2 transthiolation HTRF assay, UAE; type: biochemical
# T1 sequence (P22314 1-1058): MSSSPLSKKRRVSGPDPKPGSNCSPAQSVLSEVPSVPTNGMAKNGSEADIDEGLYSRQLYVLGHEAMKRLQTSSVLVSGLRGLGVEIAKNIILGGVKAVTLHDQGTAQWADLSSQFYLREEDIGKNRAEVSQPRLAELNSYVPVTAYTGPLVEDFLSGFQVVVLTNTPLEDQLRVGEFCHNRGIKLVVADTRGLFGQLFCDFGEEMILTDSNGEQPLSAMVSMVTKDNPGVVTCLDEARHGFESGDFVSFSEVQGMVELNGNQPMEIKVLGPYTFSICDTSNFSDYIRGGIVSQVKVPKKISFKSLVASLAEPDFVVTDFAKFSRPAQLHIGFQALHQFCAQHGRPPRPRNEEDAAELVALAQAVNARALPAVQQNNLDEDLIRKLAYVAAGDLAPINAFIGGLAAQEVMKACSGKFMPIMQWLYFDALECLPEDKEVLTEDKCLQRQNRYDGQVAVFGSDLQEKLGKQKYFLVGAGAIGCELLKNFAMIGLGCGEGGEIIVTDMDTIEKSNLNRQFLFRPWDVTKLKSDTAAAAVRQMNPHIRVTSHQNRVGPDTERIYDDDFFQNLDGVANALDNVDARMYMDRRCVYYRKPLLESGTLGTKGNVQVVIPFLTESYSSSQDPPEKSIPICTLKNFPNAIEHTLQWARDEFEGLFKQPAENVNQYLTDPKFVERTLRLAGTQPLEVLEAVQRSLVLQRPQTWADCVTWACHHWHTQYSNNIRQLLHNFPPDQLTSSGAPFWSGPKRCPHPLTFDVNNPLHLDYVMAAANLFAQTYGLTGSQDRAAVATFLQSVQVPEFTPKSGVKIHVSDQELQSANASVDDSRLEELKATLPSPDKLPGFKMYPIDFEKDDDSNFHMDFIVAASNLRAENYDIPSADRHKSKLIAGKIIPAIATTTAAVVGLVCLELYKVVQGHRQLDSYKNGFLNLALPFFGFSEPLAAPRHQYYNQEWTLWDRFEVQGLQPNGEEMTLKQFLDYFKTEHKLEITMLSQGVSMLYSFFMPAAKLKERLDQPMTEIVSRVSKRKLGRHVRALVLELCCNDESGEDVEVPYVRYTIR
# Source text: (§1) 592 E1-E2 Transthiolation Assays
# (§2) 593 An Homogeneous Time-Resolved Fluorescence (HTRF) enzyme assay was employed to evaluate
# (§3) 594 compound activity against ATG7 as previously described (11). In this assay, a Flag-tagged ATG8 homolog
# (§4) 595 (GABA type A receptor-associated protein; GABARAP) is activated by ATG7 and then transthiolated to a
# (§5) 596 GST-tagged E2 (ATG3). The product of the enzyme reaction, Flag-GABARAP-ATG3-GST, is quantified
# (§6) 597 by measuring FRET between Europium-Cryptate labelled monoclonal anti-Flag M2 (CisBio International,
# (§7) 598 Cat# 61FG2KLB) and PHYCOLINK goat anti-GST allophycocyanin (Prozyme, PJ252p1). The activation
# (§8) 599 and transthiolation of ubiquitin by Ubiquitin Activating Enzyme, activation and transthiolation of NEDD8
# (§9) 600 by NEDD8 Activating Enzyme. […]
# (§10) 606 Compounds were incubated with mature stage V gametocytes ([…], kind gift from Professor Chris Janse
# (§11) 607 at Leiden University Medical Center (LUMC), the Netherlands) for 48 hours in 384 well plates before
# (§12) 608 gamete formation was triggered by a drop in temperature and addition of xanthurenic acid. […]
# (§13) 611 Multiple data sets using different gametocyte cultures were collected on each of two separate days.
# (§14) 613 Activity against exoerythrocytic stages
# (§15) 614 Primary human hepatocytes (H1500.H15B+ Lot No. HC10-10 Cryopreserved human hepatocytes) […]
# [2] = target: T2, NEDD8-activating enzyme (NAE) (Homo sapiens, UniProt Q8TBC4); assay: E1-E2 transthiolation HTRF assay, NAE; type: biochemical
# T2 sequence (Q8TBC4 1-463): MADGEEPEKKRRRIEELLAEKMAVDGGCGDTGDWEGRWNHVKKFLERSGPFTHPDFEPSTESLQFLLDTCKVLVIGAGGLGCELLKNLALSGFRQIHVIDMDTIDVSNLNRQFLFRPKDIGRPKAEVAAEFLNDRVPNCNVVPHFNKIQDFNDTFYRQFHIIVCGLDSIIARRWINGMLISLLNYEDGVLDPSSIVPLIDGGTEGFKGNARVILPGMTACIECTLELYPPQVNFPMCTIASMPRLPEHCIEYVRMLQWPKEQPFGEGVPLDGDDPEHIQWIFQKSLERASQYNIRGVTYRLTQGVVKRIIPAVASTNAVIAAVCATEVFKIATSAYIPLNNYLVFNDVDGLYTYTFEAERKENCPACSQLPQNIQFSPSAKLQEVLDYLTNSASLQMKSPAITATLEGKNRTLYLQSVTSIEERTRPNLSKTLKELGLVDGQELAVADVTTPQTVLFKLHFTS
# T2 sequence (Q13564 1-534 partner): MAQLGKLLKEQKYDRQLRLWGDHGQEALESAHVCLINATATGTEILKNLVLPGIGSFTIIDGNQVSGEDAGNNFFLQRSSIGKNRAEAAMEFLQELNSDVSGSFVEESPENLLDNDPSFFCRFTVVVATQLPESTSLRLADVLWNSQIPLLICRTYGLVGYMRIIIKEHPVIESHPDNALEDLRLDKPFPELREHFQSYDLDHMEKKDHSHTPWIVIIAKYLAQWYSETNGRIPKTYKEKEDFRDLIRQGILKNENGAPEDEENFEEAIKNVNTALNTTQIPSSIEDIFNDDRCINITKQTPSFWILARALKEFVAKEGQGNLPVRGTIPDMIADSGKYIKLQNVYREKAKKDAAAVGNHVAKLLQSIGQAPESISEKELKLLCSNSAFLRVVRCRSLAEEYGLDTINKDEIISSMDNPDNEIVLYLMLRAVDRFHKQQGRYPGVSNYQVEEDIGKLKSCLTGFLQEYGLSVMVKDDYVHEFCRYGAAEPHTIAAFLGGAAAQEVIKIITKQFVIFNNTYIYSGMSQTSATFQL
# Source text: as §1, §2, §3, §4, §5, §6, §7, §8, §9, §10, §11, §12, §13, §14, §15
# [3] = target: T3, SUMO-activating enzyme (SAE) (Homo sapiens, UniProt Q9UBT2); assay: biochemical
# T3 sequence (Q9UBT2 1-640): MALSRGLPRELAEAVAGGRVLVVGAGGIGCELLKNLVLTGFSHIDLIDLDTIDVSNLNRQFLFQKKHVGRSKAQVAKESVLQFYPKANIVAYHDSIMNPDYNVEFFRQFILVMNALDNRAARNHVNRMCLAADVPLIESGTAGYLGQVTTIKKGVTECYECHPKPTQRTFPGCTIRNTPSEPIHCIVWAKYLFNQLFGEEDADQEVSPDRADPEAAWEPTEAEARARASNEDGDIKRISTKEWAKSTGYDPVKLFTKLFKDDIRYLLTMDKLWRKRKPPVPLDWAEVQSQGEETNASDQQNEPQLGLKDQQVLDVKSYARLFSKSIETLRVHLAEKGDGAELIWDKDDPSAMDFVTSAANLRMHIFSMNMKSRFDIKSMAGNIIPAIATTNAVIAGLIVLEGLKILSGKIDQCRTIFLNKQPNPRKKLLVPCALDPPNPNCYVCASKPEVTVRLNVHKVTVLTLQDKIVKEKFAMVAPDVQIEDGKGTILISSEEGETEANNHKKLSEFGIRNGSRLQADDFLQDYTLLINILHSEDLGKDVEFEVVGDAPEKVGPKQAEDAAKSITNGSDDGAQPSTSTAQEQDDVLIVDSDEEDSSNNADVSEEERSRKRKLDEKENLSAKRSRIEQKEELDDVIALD
# T3 sequence (Q9UBE0 1-346 partner): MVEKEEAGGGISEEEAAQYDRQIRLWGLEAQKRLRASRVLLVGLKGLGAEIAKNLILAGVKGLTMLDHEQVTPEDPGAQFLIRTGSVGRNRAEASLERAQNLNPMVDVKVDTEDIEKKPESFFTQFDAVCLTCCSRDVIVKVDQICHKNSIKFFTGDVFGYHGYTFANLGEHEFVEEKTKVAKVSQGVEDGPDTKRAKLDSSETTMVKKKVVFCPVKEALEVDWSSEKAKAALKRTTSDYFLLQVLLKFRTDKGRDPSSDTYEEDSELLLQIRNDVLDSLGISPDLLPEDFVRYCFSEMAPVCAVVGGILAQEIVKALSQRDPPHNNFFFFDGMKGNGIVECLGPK
# Source text: as §1, §2, §3, §4, §5, §6, §7, §8, §9, §10, §11, §12, §13, §14, §15
# human Atg7 = target: T4, human Atg7 (Homo sapiens, UniProt O95352); assay: E1-E2 transthiolation HTRF assay, ATG7 (RH-GABARAP); type: biochemical
# T4 sequence (O95352 1-703): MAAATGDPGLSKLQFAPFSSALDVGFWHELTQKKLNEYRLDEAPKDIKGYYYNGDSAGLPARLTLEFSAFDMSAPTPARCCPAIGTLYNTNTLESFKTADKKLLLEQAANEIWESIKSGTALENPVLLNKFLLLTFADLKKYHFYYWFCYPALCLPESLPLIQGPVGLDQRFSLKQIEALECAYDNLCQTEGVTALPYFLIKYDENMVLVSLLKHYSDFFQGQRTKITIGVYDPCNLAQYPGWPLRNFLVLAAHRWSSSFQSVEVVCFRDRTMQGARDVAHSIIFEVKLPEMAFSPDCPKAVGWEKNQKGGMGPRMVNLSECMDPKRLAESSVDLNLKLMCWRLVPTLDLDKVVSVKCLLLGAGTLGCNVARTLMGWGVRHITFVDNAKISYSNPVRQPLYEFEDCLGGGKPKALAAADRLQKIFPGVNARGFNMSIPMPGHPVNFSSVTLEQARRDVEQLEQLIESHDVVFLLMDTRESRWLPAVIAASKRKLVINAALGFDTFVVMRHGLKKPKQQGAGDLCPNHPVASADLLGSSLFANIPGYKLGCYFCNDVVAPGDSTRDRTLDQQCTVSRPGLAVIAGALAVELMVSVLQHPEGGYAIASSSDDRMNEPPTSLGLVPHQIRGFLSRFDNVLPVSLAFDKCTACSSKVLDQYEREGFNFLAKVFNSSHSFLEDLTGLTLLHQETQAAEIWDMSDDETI
# Source text: as §1, §2, §3, §4, §5, §6
# 598 Cat# 61FG2KLB) and PHYCOLINK goat anti-GST allophycocyanin (Prozyme, PJ252p1). […]
# as §10, §11, §12, §13, §14
# 614 Primary human hepatocytes (H1500.H15B+ Lot No. HC10-10 Cryopreserved human hepatocytes)
# 615 were cultured for 2 days and then overlaid with P. falciparum NF54 sporozoites and compounds.
# 616 Supernatant was refreshed daily with fresh compounds.
compound,measurement,setting,value
"Nc1ncnc2c1ncn2[C@@H]1O[C@H](COS(N)(=O)=O)[C@@H](O)[C@H]1O [AMS, adenosine 5′-sulfamate, reference compound]",IC50,[1],62 ± 32 nM
same,IC50,[2],0.64 ± 0.11 nM
same,IC50,[3],6.3 ± 1.5 nM
same,IC50,human Atg7,410 ± 20 nM

# Source: PMC7613620, “Reaction hijacking of tyrosine tRNA synthetase as a whole-of-life-cycle antimalarial strategy” (Science (New York, N.Y.), 2022)
